Screens as filed in PubChem BioAssay.
Most compounds without a hit are left out; they make up all but 2.3% or so of the library.
Nrf2 inh = blocks Nrf2 signaling; AID 504444; A549 ARE-Fluc reporter, luciferase luminescence, 18-24 h; Potency, µM (doses to about 46 µM), for inactives: at the top dose activity change, negative = inhibition, hits mostly inhibitors; actives 2.1% (n = 360,000); also: potency is read from the fitted curve at half-maximal effect; % is scaled to controls: 0 for no effect and ±100 for the full control effect; nearly all actives have a fitted effect of over 60% in size
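A549 ARE_Fluc cells, 5000/well, 5% FBS OPTI-MEM; compounds in dose-response, 18-24 h at 37 °C/5% CO2; CellTiter-Fluor viability read (Ex 405/Em 525), then BugLite luciferase luminescence = Nrf2 activity.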
A549 tox-1 = kills or reduces viability of A549 cells in Nrf2 counter-screen; A549 ARE-Fluc cells, CellTiter-Fluor viability, 18-24 h; Potency, µM (titrated, usually from 46 µM), without a hit: top-dose activity change, negative = cytotoxicity, hits mostly inhibitors; actives 0.16% (n = 390,000); AID 504648; also: potency is read from the fitted curve at half-maximal effect; % is scaled to controls: 0 for no effect and ±100 for the full control effect
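A549 ARE-Fluc cells in 5% FBS OPTI-MEM, 5000 cells/well, rested 2 h then exposed to compounds in concentration-response for 18-24 h at 37 °C. Viability by CellTiter-Fluor fluorescence (Ex 405/Em 525) after 30 min; luciferase luminescence (BugLite, 15 min, RT) read afterwards.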
miR-21 reporter = miR-21 reporter, rising signal | AID 2288 | HeLa miR-21 FLuc reporter, luciferase, 48 h | 340,000 tested, under 10 active | Potency, µM (doses to about 38.3 µM), for inactives: at the top dose reporter change, positive = more light; active = well fitted rising curve with a large enough effect; inconclusive = small, poorly fitted or top-dose-only effect; inactive = no such curve, though single readings can be large or run the other way;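 note: % of control where 0% means no effect; miR-21 action dims this reporter so a rising signal means less miR-21 action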
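HeLa miR-21-FLuc reporter line, endogenous miR-21; 2000 cells/well in DMEM/10% FBS; compound titration up to ~40uM final, 48 h, 37 degree Celsius; luciferase detection reagent, 15 min lysis, CCD luminescence.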
Nrf2 activator = activators of Nrf2 (ARE) signaling. AREc32 ARE-luciferase reporter (MCF7-derived line), luminescence, 24 h. Potency, µM (titrated, usually from 46.1 µM), for the others: at the top dose activation, usual class: activators. actives 0.31% (n = 410,000); also: potency is read from the fitted curve at half-maximal effect; % of control where 0% means no effect; nearly all actives have a fitted effect of over 65% in size
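For detection, Steady-Glo was added and plates sat 30 min at RT; before that, AREc32_Fluc cells grown overnight in OPTI-MEM/5% FBS had been treated with 23 nL compound for 24 hr at 37 deg C.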
Mito fusion act = mitochondrial division inhibition or fusion activation; actives 0.23% (n = 320,000); Potency, µM (doses to about 46.1 µM), without a hit: top-dose growth rescue (activation), most hits filed as activators; S. cerevisiae fusion-defective mutant growth rescue, CellTiterGlo 48 h; also: potency is read from the fitted curve at half-maximal effect; % of control where 0% means no effect; nearly all actives have a fitted effect of over 45% in size
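Growth-rescue viability read-out: after 48 h at the non-permissive 37C in glycerol/ethanol YPEG, yeast mitochondrial fusion mutants are measured by CellTiterGlo luminescence; compounds (23 nl pinned per well) restoring growth score as division inhibitors or fusion activators.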
FLuc counter 3 = blocks purified firefly luciferase in Nrf2 counterscreen; shares compounds with Nrf2 inh; purified firefly luciferase, luminescence inhibition; Potency, µM (series often up to 57.5 µM), for the others: top-dose activity change, negative = inhibition, usual class: inhibitors; actives 4% (n = 1,400); also: potency is read from the fitted curve at half-maximal effect; % is scaled to controls: 0 for no effect and ±100 for the full control effect; nearly all actives have a fitted effect of over 65% in size
A549 tox-2 = counter-screen for Nrf2 inhibitors: cytotoxicity in A549 ARE cells; shares compounds with Nrf2 inh; A549 ARE-Fluc cells, cytotoxicity counterscreen; Potency, µM (titrated, usually from 46.1 µM), inactives show top-dose activity change, negative = cytotoxicity, hits mostly inhibitors; actives 2% (n = 1,400);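 also: potency is read from the fitted curve at half-maximal effect; cells exposed to compounds for 18 to 24 hours; % is scaled to controls: 0 for no effect and ±100 for the full control effect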
Nrf2 ARE inh = confirmation of Nrf2 inhibitors in A549 ARE reporter cells. shares compounds with Nrf2 inh. AID 720524. A549 ARE-firefly luciferase reporter, luminescence. actives 74% (n = 1,400). Potency, µM (doses to about 46.1 µM), for inactives: at the highest dose activity change, negative = inhibition, usual class: inhibitors; also: potency is read from the fitted curve at half-maximal effect; % is scaled to controls: 0 for no effect and ±100 for the full control effect; nearly all actives have a fitted effect of over 65% in size
The depositor's hits bear a star; ? = inconclusive; nt = not tested or not shown; [ ] = another dose, or the depositor's remark. Calls follow the shape of the dose curve; as a rule, active = well fitted curve in the direction sought with a large enough effect; inconclusive = small, poorly fitted or top-dose-only effect, or another doubt; inactive = no such curve, though single readings can be large; an effect the other way counts as inactive or inconclusive.

SMILES	Nrf2 inh	A549 tox-1	miR-21 reporter	Nrf2 activator	Mito fusion act	others
O=C(Nc1nc2c(F)cccc2s1)c1ccco1	?	1.0%	-18.1%	7.08µM*	-0.4%
O=C(Nc1ccccc1O)c1ccc(C(=O)c2ccccc2)o1	16.3%	-0.1%	-42.7%	12.6µM*	14.1%
CCOc1ccccc1CN(CCc1ccc2c(c1)OCO2)Cc1cc(OC)c(OC)cc1OC	9.8%	2.4%	27.4%	4.8%	nt
O=C(CSc1ncc2c(n1)-c1ccc(Cl)cc1N(Cc1ccccc1)S2(=O)=O)Nc1ccccc1C(F)(F)F	?	13.8%	7.0%	0.2%	nt
O=C(Nc1ccccc1O)c1cccc(NC(=O)c2ccco2)c1	9.4%	0.3%	-7.2%	7.94µM*	0.1%
O=C(c1ccccc1)c1cccc(NC(=O)c2ccco2)c1	6.6%	-6.6%	-35.4%	6.3%	15.0%
O=C(/C=C/c1cccc([N+](=O)[O-])c1)Nc1cccc(NC(=O)c2ccco2)c1	20.6µM*	?	1.4%	2.5%	13.0%
COc1cc(-c2ccc3ncnc(NCc4cccs4)c3c2)cc(OC)c1OC	-17.2%	-7.8%	nt	nt	nt
CC(=O)c1c(C)oc2ccc(N(C(C)=O)S(=O)(=O)c3cccc4cccnc34)cc12	18.4µM*	-13.8%	12.8%	-0.2%	-0.8%
Cc1cc(C)cc(NC(=O)Cn2c(=O)n(-c3cc(C)cc(C)c3)c(=O)c3oc4ccccc4c32)c1	12.3%	-1.6%	0.5%	5.0%	nt
CCC(=O)C1=C(O)C(c2cccc(Oc3ccccc3)c2)CCC1=O (stereo unspecified)	14.6µM*	?	19.8%	2.5%	6.0%
Cc1ccc(NC(=O)Cn2c(=O)ccc3cc(S(=O)(=O)N4CCC(C)CC4)ccc32)cc1C	nt	13.2%	6.8%	0.0%	nt
CCOc1ccc(N(C)S(=O)(=O)c2cc(-c3cc(C)no3)ccc2CC)cc1	-25.8%	19.7%	?	0.1%	-3.0%
CCOc1ccc(N(C)S(=O)(=O)c2cc(-c3cc(C)no3)ccc2C)cc1	18.4µM*	-11.9%	29.0%	0.4%	3.6%
COc1cccc(CN(C)CC(=O)Nc2ccccc2C(=O)Nc2ccccc2)c1OC	23.1µM*	?	7.9%	2.5%	-10.2%
COc1cccc(CN(C)CC(=O)Nc2ccccc2N2CCOCC2)c1OC	-10.4%	1.8%	-0.3%	0.1%	-4.3%
Cc1ccc(-c2c(CN3CCN(c4cccc(C(F)(F)F)c4)CC3)csc2C)cc1	8.5%	-1.3%	0.5%	0.0%	nt
COc1cccc(OCCSc2nc3ccccc3n2CC(=O)N2CCOCC2)c1	?	-5.6%	19.0%	-0.2%	nt
COc1cccc(OCCSc2nc3ccccc3n2CC(=O)N2CCCCC2)c1	18.4µM*	-14.6%	20.5%	1.1%	nt
CN(Cc1ccc(OCC(O)CN2CCCCC2)cc1)Cc1ccnc2ccccc12 (stereo unspecified)	5.8µM*	-2.0%	16.5%	4.9%	-3.6%

Next section; it opens with the 3 that closed the last part.
SMILES	Nrf2 inh	A549 tox-1	miR-21 reporter	Nrf2 activator	Mito fusion act	others
COc1cccc(OCCSc2nc3ccccc3n2CC(=O)N2CCOCC2)c1	?	-5.6%	19.0%	-0.2%	nt
COc1cccc(OCCSc2nc3ccccc3n2CC(=O)N2CCCCC2)c1	18.4µM*	-14.6%	20.5%	1.1%	nt
CN(Cc1ccc(OCC(O)CN2CCCCC2)cc1)Cc1ccnc2ccccc12 (stereo unspecified)	5.8µM*	-2.0%	16.5%	4.9%	-3.6%
Cc1nc(N2CCN(c3ccccn3)CC2)c2c(C)c(C(=O)N3CCN(c4ccc(F)cc4)CC3)sc2n1	18.4µM*	-9.5%	?	2.6%	20.4%
Cc1nc(N2CCN(C(=O)COc3ccccc3)CC2)c2c(C)c(C)sc2n1	20.6µM*	-28.6%	?	-0.6%	-2.2%
COc1ccccc1N1CCN(C(=O)c2sc3ncnc(N4CCN(c5ccccn5)CC4)c3c2C)CC1	?	-7.9%	24.2%	-1.0%	2.9%
COc1ccccc1N1CCN(C(=O)c2sc3nc(C)nc(N4CCN(c5ccccn5)CC4)c3c2C)CC1	14.6µM*	-23.2%	26.3%	1.7%	28.2µM*
CC1CCN(c2nc(-c3ccc(C(C)(C)C)cc3)nc3ccccc23)CC1	?	-3.2%	-52.4%	6.3%	nt
N=c1nc(-c2ccccc2)n(-c2ccccc2)s1	11.5%	-0.1%	nt	nt	nt
CC(=O)N1CCN(c2ccc(NS(=O)(=O)c3ccc4c(c3)CC(=O)N4)cc2)CC1	21.5%[92.2 µM]	-0.3%[92.2 µM]	nt	nt	nt
COc1ccc(NCc2cc3cc4c(cc3n(CC(=O)Nc3ccc(C)cc3)c2=O)OCO4)cc1	6.1%	-1.6%	-8.6%	2.8%	nt
CC(C)(C)C(=O)Nc1ccccc1C(=O)NCc1cccnc1	-9.0%	-8.8%	-9.2%	-0.1%	6.6%
CC(C)(C)c1ccccc1OCC(=O)Nc1ccccc1C(=O)NCc1cccnc1	-7.4%	1.7%	?	2.6%	15.8µM*
O=C(NC(=S)Nc1cccc2cccnc12)c1ccccc1	?	-2.2%	-18.9%	4.47µM*	-4.7%
N#Cc1ccccc1NC(=S)NC(=O)c1cccs1	1.2%	1.9%	-26.7%	15.8µM*	-3.4%
O=C(Nc1cccc2cccnc12)c1ccc(F)cc1	?	1.2%	-32.4%	12.6µM*	-4.8%
O=C(Nc1cccc2cccnc12)c1ccccc1	?	0.1%	nt	nt	nt
O=C(NC(=S)Nc1cccc2cccnc12)c1cccs1	6.3%	-3.0%	0.7%	8.91µM*	-3.4%
Cc1ccc(CCNC(=O)c2cnc3c(-c4ccc(F)cc4)c(C)nn3c2C)cc1	?	7.0%	-0.3%	-0.9%	nt
Cc1c(/C=N/NC(=O)c2ccccc2O)c2ccccn2c1C(=O)c1ccc(F)cc1	20.6µM*	18.4µM*	-12.1%	2.9%	12.2%
Cc1c(/C=N/NC(=O)c2ccc(O)cc2)c2ccccn2c1C(=O)c1ccc(F)cc1	?	?	-9.3%	3.5%	-0.1%
CC(C)c1ccccc1NC(=O)C(Cc1c[nH]c2ccccc12)NC(=O)OC(C)(C)C (stereo unspecified)	?	-25.5%	-7.3%	1.6%	nt
Cc1nc2ccc(S(=O)(=O)c3ccc4nc(C)[nH]c4c3)cc2[nH]1	nt	-4.3%	0.1%	0.0%	0.3%
Cc1nc2ccc(NS(=O)(=O)c3ccc(F)c(C)c3)cc2[nH]1	8.2µM*	-1.9%	18.4%	-0.7%	-1.7%	FLuc counter 3=-1.3%;A549 tox-2=-3.4%;Nrf2 ARE inh=5.8µM*
CC(C)NS(=O)(=O)c1ccc(NC(=S)NC(=O)c2ccc(-c3ccccc3)cc2)cc1	2.06µM*	-5.0%	6.8%	-0.2%	-0.7%	FLuc counter 3=-1.5%;A549 tox-2=-9.1%;Nrf2 ARE inh=4.61µM*
CC(=O)Nc1ccc(NC(=S)NC(=O)c2ccc(-c3ccccc3)cc2)cc1	-22.9%	-2.6%	nt	-0.6%	nt

Reprinted at random: two records from the list
SMILES	Nrf2 inh	A549 tox-1	miR-21 reporter	Nrf2 activator	Mito fusion act	others
CC(C)(C)C(=O)Nc1ccccc1C(=O)NCc1cccnc1	-9.0%	-8.8%	-9.2%	-0.1%	6.6%
Cc1nc(N2CCN(C(=O)COc3ccccc3)CC2)c2c(C)c(C)sc2n1	20.6µM*	-28.6%	?	-0.6%	-2.2%
